Patent publication US11230683B2 (priority 2020, dated 2022)

Chains of the proteins cited; added tags and fusions are not shown. Residues count along the entry.
UniProt P81908, whole entry: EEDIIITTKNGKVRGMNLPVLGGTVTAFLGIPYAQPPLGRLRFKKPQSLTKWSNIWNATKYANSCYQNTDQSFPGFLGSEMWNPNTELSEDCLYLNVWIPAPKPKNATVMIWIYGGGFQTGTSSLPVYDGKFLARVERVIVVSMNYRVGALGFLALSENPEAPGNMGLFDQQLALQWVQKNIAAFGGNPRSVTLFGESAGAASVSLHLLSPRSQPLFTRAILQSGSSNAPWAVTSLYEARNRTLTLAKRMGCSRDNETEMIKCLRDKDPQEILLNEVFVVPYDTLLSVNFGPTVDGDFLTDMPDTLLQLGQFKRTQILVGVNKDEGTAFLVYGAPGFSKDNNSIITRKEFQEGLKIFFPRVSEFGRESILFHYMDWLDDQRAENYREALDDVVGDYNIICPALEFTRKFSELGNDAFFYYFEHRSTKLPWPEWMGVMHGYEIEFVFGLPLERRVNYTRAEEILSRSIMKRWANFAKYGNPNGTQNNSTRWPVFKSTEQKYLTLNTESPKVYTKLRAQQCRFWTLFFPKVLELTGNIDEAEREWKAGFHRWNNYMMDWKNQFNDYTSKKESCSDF
UniProt P22303, 32-617 isoform P22303-2 limits assumed: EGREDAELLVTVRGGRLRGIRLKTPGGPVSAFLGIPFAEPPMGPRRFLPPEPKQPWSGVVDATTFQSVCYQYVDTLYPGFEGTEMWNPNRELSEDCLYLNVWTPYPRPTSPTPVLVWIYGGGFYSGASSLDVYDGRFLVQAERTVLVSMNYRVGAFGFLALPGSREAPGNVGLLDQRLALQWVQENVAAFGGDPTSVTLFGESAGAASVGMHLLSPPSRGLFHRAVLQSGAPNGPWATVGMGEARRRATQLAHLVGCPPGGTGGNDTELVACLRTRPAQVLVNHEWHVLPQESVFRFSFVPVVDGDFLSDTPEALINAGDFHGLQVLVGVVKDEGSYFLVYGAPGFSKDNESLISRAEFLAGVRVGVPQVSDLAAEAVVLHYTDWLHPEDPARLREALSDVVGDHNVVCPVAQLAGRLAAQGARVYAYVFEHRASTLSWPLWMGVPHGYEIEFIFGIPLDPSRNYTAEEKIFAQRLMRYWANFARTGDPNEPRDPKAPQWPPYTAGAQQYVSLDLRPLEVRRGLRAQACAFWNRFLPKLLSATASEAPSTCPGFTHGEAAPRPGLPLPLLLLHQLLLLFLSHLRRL

What was measured:
[1] = biological target: T1, BuChE from equine serum (eqBuChE) (Equus caballus, UniProt P81908); format: biochemical
T1 construct: The BuChE freeze-dried from equine serum (eqBuChE, Sigma Aldrich); purchased Sigma Aldrich; host or cells: equine serum

[2] = biological target: T2, human erythrocyte AChE (hAChE) (Homo sapiens, UniProt P22303); format: biochemical
T2 construct: The human erythrocyte AChE (hAChE, aqueous buffer solution); purchased Sigma Aldrich; host or cells: human erythrocytes

In the case of “Tri(4-isopropylbenzoate)phosphate [Compound G]”, the “IC50 eqBuChE” value [1] is reported as 145.5 mg/L and the “IC50 hAChE” value [2] is reported as 15.8 mg/L.
